A short description of the experiment: Selective index is the ratio of CC10 to that of IC90. The class given is functional. The procedure, abridged: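 SI = CC₁₀ / IC₉₀. CC₁₀ is the highest noncytotoxic concentration in uninfected-cell cytotoxicity wells, counted by trypan blue exclusion after 6–7 days; counts below 90% of the cell-only control are treated as toxic. […] Cultures are run in duplicate.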

The results in this text go back to ChEMBL document CHEMBL1133648, “Synthesis, stability, antiviral activity, and protease-bound structures of substrate-mimicking constrained macrocyclic inhibitors of HIV-1 protease” (J Med Chem, 2000).

Take `CC(C)CN(C[C@@H](O)[C@H](Cc1ccccc1)NC(=O)O[C@H]1CCOC1)S(=O)(=O)c1ccc(N)cc1`: the SI was found to be 125.
